Yeast mating assay 1: variants of the scFv Ab-14

Source: Engelhart et al. 2022 (doi:10.1038/s41597-022-01779-4), MIT Lincoln Laboratory and A-Alpha Bio; data file from the FLAb repository.

Antigen: PDVDLGDISGINAS, a 14-residue peptide of the SARS-CoV-2 spike HR2 region.

Ab-14 is the parent antibody, in scFv form: VH, then the linker GGGGSGGGGSGGGGS, then VL. The heavy chain is unchanged in all variants.
VH: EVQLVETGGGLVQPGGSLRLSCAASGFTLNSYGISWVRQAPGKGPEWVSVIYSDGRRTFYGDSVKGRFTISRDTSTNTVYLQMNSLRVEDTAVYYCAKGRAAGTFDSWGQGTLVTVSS
VL: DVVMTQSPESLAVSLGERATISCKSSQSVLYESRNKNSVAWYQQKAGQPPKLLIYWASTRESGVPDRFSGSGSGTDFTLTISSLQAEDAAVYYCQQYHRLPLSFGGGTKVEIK

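The parent was found by panning a naive human phage display library on the peptide. Variants in AAYL50 differ from the parent at up to three CDR positions; double and triple changes were sampled at random. In AlphaSeq, yeast of one mating type display the scFv and yeast of the other type display the target. Pairs that bind mate more often; barcode pairs of the diploids are counted by sequencing. Scores were corrected for input abundance and mapped to Kd with protein pairs of known affinity run in the same pool. Mating was done three times.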

Each variant is given by its three light chain CDRs, as the data file delimits them; those of the parent are KSSQSVLYESRNKNSVA, WASTRES, QQYHRLPLS.
Scale: log10 of Kd in nM, estimated from mating counts; low values are strong binders.
The mean shown is taken over the replicates in which the pair was detected.
"ND" marks a missing value. The strain was present, yet no cells mated with the target were sequenced in that replicate, which points to weak or no binding.
In this assay the parent's reference entry averaged 0.65; its copy inside this library read 1.68.
Background: pairings of library AAYL50 with three empty control strains gave a value in 18% of cases (median 4.19, 5th percentile 2.99). Values in that range, when seen in few replicates, are hard to tell from nonspecific mating. Also given: how often the same scFv was detected with the empty control strains, with their mean in brackets.

| CDR-L1 | CDR-L2 | CDR-L3 | log10 Kd (nM) by replicate | mean, log10 nM | control signals |
|---|---|---|---|---|---|
| KSSQSVLYESRNKNSVA | WASTRES | QQYHRLPDI | 4.07 / 3.31 / 5.14 | 4.17 | 1 of 9 (4.42) |
| KSSQPMLYESRNKNSVA | WASTRES | TQYHRLPLS | ND / ND / ND | ND | 1 of 9 (3.60) |
| KSMQSVLYESRNKNEVA | WAITRES | QQYHRLPLS | 3.34 / 3.73 / 4.20 | 3.76 | 1 of 9 (5.65) |
| KSSQSVLYEFRNKNSVA | WASWRES | QQYHDLPLS | 1.88 / ND / ND | 1.88 | 0 of 9 |
| KSSQSILYESRNKNSVA | WASTRES | QQQHRLILS | 0.97 / 1.13 / 1.07 | 1.06 | 0 of 9 |
| KSSQSVLYNSRNINSVG | WASTRES | QQYHRLPLS | ND / 4.55 / ND | 4.55 | 5 of 9 (5.09) |
| KSNQSVLYESRNKNSVA | WASTRES | TQYHRVPLS | 2.15 / 1.97 / 2.10 | 2.07 | 7 of 9 (4.14) |
| KSSQSVLYESRNKTSVA | WASTRES | QQYVRLPLS | 3.58 / ND / ND | 3.58 | 2 of 9 (4.81) |
| KKSQSVLDESRNKNSVA | WARTRES | QQYHRLPLS | 4.74 / ND / ND | 4.74 | 5 of 9 (4.16) |
| KSSQSKLYMSRNKNSWA | WASTRES | QQYHRLPLS | ND / ND / ND | ND | 3 of 9 (5.22) |
| KSSFSVLYESRNKNSVA | VASTRES | QQCHRLPLS | ND / 3.28 / 3.74 | 3.51 | 0 of 9 |
| KSSQSVLYESLNKNSVA | WAETQES | QQYHRLPLS | 1.63 / 1.95 / 1.87 | 1.82 | 2 of 9 (3.46) |
| KSHQSVLYESRNKNSVA | WASTRES | QQYHRFPLS | ND / ND / ND | ND | 5 of 9 (3.64) |
| KSSNSTLYESRNKNSVA | WASTRES | QQYHRLPLQ | 1.97 / 1.59 / 2.00 | 1.86 | 1 of 9 (3.84) |
| KSSQSVLYESRNENSVA | WASTREG | QQYHRVPLS | 1.17 / 1.42 / 1.37 | 1.32 | 5 of 9 (5.14) |
| KSSQSVLQESRNKNSVA | WGSTRES | LQYHRLPLS | 0.75 / 0.79 / 0.82 | 0.79 | 1 of 9 (5.71) |
| KSYQSVLYESRNKNSNA | WASTRES | QMYHRLPLS | 3.46 / ND / ND | 3.46 | 1 of 9 (3.79) |
| KSSQSVLPESRNKNKVA | WASTRES | QQYHRAPLS | ND / 4.24 / ND | 4.24 | 1 of 9 (5.05) |
| KSSQSVLYESRNKDSVA | WASTRES | QQYHRLDLS | 4.50 / 3.69 / 5.49 | 4.56 | 8 of 9 (4.35) |
| KESQSVLYESRNKNSVA | WASTRES | QKEHRLPLS | 1.56 / 1.60 / 2.20 | 1.79 | 0 of 9 |
| KSSQSVLYEYRGKNSVA | WASTRED | QQYHRLPLS | 3.78 / 2.74 / ND | 3.26 | 2 of 9 (3.09) |
| KSSQEVLYESRNKRSVA | WASTREC | QQYHRLPLS | 2.08 / 2.24 / 2.04 | 2.12 | 2 of 9 (3.68) |
| KSSQSVLYESRNKNSVA | WALTRES | QMYHRLPES | 3.36 / 3.60 / 3.47 | 3.48 | 4 of 9 (4.55) |
| KSTFSVLYESKNKNSVA | WASTRES | QQYHRLPLS | 1.05 / 1.23 / 1.19 | 1.15 | 5 of 9 (5.07) |
| KMSQDVLYESRNKNSVA | WASTHES | QQYHRLPLS | 0.89 / 1.00 / 0.58 | 0.82 | 1 of 9 (3.52) |
| KSSQSVLYESRNKNSDA | CASTREE | QQYHRLPLS | 4.15 / 3.69 / ND | 3.92 | 1 of 9 (3.91) |
| KSSQSNLYESMNKNSVA | WASTTES | QQYHRLPLS | ND / ND / ND | ND | 1 of 9 (4.59) |
| KSSQSVLYESRNKNFVA | WASTYES | QQYHRLELS | ND / ND / ND | ND | 1 of 9 (3.26) |
| KSSQSLLYESRNTNSVA | WASTRES | QQPHRLPLS | ND / ND / ND | ND | 1 of 9 (4.24) |
| KSSQAVLYESRNKNSVI | WASTRES | QQYHRLPLS | ND / ND / ND | ND | 0 of 9 |
| KSSQSVLYESRNKNLVA | WASTRES | QQYHGLPLS | ND / ND / ND | ND | 1 of 9 (4.10) |

The first 2 variants above that were never detected:

CDR-L1	CDR-L2	CDR-L3	log10 Kd (nM) by replicate	mean, log10 nM	control signals
KSSQPMLYESRNKNSVA	WASTRES	TQYHRLPLS	ND / ND / ND	ND	1 of 9 (3.60)
KSSQSKLYMSRNKNSWA	WASTRES	QQYHRLPLS	ND / ND / ND	ND	3 of 9 (5.22)